# Yeast mating assay 2: variants of the scFv Ab-91

Antigen: PDVDLGDISGINAS, a 14-residue peptide of the SARS-CoV-2 spike HR2 region.

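The parent was found by panning a naive human phage display library on the peptide. Variants in AAYL51 differ from the parent at up to three CDR positions; double and triple changes were sampled at random. The scFvs were displayed on barcoded MATa yeast, the peptide on MATalpha yeast. After mating in shaken culture at 30 °C for 16 h, diploids were selected and their barcode pairs sequenced. The ratio of observed to expected reads was calibrated, replicate by replicate, on BCL2-family standards whose Kd was known from biolayer interferometry. The assay was run in three technical replicates.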

Ab-91 is the parent antibody, in scFv form: VL, then the linker GGGGSGGGGSGGGGS, then VH. The light chain is unchanged in all variants.
VL: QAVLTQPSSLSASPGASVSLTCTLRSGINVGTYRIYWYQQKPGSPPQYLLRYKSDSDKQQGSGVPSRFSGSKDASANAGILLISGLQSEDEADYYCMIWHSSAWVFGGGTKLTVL
VH: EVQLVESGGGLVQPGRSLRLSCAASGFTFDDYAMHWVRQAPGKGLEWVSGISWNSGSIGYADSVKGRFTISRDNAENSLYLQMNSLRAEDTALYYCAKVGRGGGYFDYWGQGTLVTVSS

The parent's heavy chain CDRs are GFTFDDYAMH, GISWNSGSIGYADSVK, VGRGGGYFDY; each variant's own CDRs replace them letter for letter. The read-out is the apparent dissociation constant on a log10 scale (nM): the lower, the stronger. Averages over replicates are reported, and they cover detected replicates only. "n.d." marks a missing value. The strain was present, yet no cells mated with the target were sequenced in that replicate, which points to weak or no binding. As a blank, each scFv also met three strains without target: over library AAYL51, 21% of these pairings were detected, typically at 4.54 and seldom below 3.26. The control count says in how many pairings with the empty strains this scFv gave a signal, with their mean in brackets.

| CDR-H1 | CDR-H2 | CDR-H3 | replicates, log10 nM | log10 Kd (nM), mean | empty controls |
|---|---|---|---|---|---|
| GFTFDDYAMH | LISWNSGSIDYADSVK | VGRGGIYFDY | n.d. 5.21 n.d. | 5.21 | 0/9 |
| GFTFDDYAMH | GISWNSGSIGYADSRR | VGRGGGYFDT | n.d. n.d. n.d. | n.d. | 2/9 (4.64) |
| GFTFDDYAMH | GISWNCGSIGYADSVK | VGRGGGVFDY | 2.51 2.66 2.57 | 2.58 | 6/9 (4.53) |
| GFTFDDYAMH | GISWNLGSIGYADSVC | VGRGWGYFDY | n.d. n.d. 3.32 | 3.32 | 0/9 |
| GFTFDTYAMH | GISWNSGSIGYAYSVK | VGNGGGYFDY | 2.62 2.78 2.63 | 2.68 | 3/9 (4.46) |
| GFKFDDYAMH | GISWWSGSIGWADSVK | VGRGGGYFDY | n.d. 4.97 n.d. | 4.97 | 0/9 |
| GFTFDDVAMH | GISWESGSIGYADSVT | VGRGGGYFDY | 3.08 n.d. n.d. | 3.08 | 0/9 |
| GFTFDDLAMH | GISWNSGSIGYGDSVK | VGRGGGHFDY | n.d. 4.90 n.d. | 4.90 | 3/9 (4.82) |
| GFTFDDYAMH | GISWNSGSDGYADSVP | VGRGGGYRDY | n.d. n.d. n.d. | n.d. | 0/9 |
| GFSFDDYRMH | GISWNSGSIGYIDSVK | VGRGGGYFDY | n.d. n.d. n.d. | n.d. | 1/9 (3.05) |
| GFTFDDYAMH | GISWNSGSIGYADQWK | GGRGGGYFDY | 5.29 4.08 n.d. | 4.68 | 2/9 (5.34) |
| GFTFDDYAMH | GISWNFGSIGYADSSK | VGRGGGYFRY | 4.98 4.86 n.d. | 4.92 | 6/9 (4.54) |
| GFTFDDYAMH | GISWNSGSIGYASSVR | EGRGGGYFDY | 4.88 n.d. n.d. | 4.88 | 3/9 (4.83) |
| GFTFADYAMH | GISWNSVSIGYADSVK | VGRGGGYFDY | 5.26 5.05 n.d. | 5.15 | 3/9 (4.30) |
| GFTFDDYAMH | GISWNSGSIGKADSCK | VGRGGGLFDY | n.d. n.d. n.d. | n.d. | 0/9 |
| GMTFDMYAMH | GISWNNGSIGYADSVK | VGRGGGYFDY | 5.09 5.34 4.49 | 4.97 | 1/9 (4.92) |
| GFTFDDYAMM | GISINSGSIGYADSVK | LGRGGGYFDY | 3.57 5.52 n.d. | 4.55 | 2/9 (4.15) |
| GFAFDDYAMH | GISWNSGSIHYADSVK | VGRGGPYFDY | 5.75 n.d. n.d. | 5.75 | 5/9 (5.03) |
| GFTFDLYAMH | GISWNSGSIVYADSVK | VGRGFGYFDY | n.d. n.d. n.d. | n.d. | 0/9 |
| GFTFDDYAMC | GISWNSGSIGYADSCK | VGRLGGYFDY | n.d. 5.54 n.d. | 5.54 | 0/9 |
| GFTFDCYAMH | GISWNMGSIGYADSVK | VGRYGGYFDY | n.d. n.d. 3.35 | 3.35 | 0/9 |
| GFMFDDYAMH | GISWNSKSIGYADSVK | VGRGGGYYDY | 1.98 2.07 2.00 | 2.02 | 2/9 (5.00) |
| GFTFDDYAMA | GIMWNSGSIGYADSVK | VGRGGGYFDY | n.d. n.d. n.d. | n.d. | 0/9 |
| GFTFDDYAMH | GISSNSGSIGYADSVK | VGRFGGAFDY | n.d. 3.97 3.73 | 3.85 | 0/9 |
| GFTFDDYALH | VISWNSGSIGYADSVK | VGRTGGYFDY | 3.47 n.d. n.d. | 3.47 | 0/9 |
| GFTFDDYAMH | GISWNVGSIGYLDSVK | VGIGGGYFDY | 4.36 4.16 n.d. | 4.26 | 0/9 |
| GFTFDDYAMH | GISWNSFSIGYADSVK | VGNGGGYFEY | 3.72 4.14 3.49 | 3.78 | 5/9 (4.38) |
| GFTFDDYMMH | GGSWNSGSIGYADSVK | VGRGGGYFDC | n.d. n.d. n.d. | n.d. | 1/9 (3.64) |
| GFTFDDYAMH | GISWHSGSIGKADSVK | KGRGGGYFDY | 4.00 n.d. n.d. | 4.00 | 1/9 (4.88) |
| GFTFDDFAMH | GISWNSGRIGYADSVK | VGRSGGYFDY | 5.10 n.d. n.d. | 5.10 | 0/9 |
| GFTFDDYAMH | GPSWNSGSIGYAISVK | VGRGGGYFLY | n.d. n.d. n.d. | n.d. | 0/9 |
| GFTVDDYAMH | GISWNSGSIFIADSVK | VGRGGGYFDY | n.d. n.d. n.d. | n.d. | 0/9 |
| GFTFDDYAMH | GISCNSGSIGYADSVK | VGRGGGYFGY | 2.49 3.42 2.19 | 2.70 | 2/9 (4.08) |
| GFTFDDYAMH | GISWNSGSIGVADSVK | VGRGEGYVDY | n.d. n.d. n.d. | n.d. | 1/9 (2.51) |
| GFTFDDYAMH | GISWTSGSIGSADSVK | VGRGGGTFDY | n.d. n.d. n.d. | n.d. | 2/9 (5.36) |
| GFTTDDYAMH | GISWNSISNGYADSVK | VGRGGGYFDY | 4.09 4.10 n.d. | 4.10 | 1/9 (4.39) |
| GWTFDDYAMH | GISWPSGSIGYADSVK | VGRGGVYFDY | n.d. n.d. n.d. | n.d. | 0/9 |
| GFTFDDYAQH | IISWNSGSIGYADSVK | VGRGGGYFNY | n.d. 4.38 n.d. | 4.38 | 1/9 (4.09) |
| GFTFDDYAMH | GISWNSGSIGYADSVK | VGRGGGYFCC | 1.40 1.54 1.18 | 1.37 | 5/9 (4.35) |

For reference, 4 entries of the list once more:

| CDR-H1 | CDR-H2 | CDR-H3 | replicates, log10 nM | log10 Kd (nM), mean | empty controls |
|---|---|---|---|---|---|
| GFTFDDYMMH | GGSWNSGSIGYADSVK | VGRGGGYFDC | n.d. n.d. n.d. | n.d. | 1/9 (3.64) |
| GFTFDDYAMH | GISWNVGSIGYLDSVK | VGIGGGYFDY | 4.36 4.16 n.d. | 4.26 | 0/9 |
| GFTTDDYAMH | GISWNSISNGYADSVK | VGRGGGYFDY | 4.09 4.10 n.d. | 4.10 | 1/9 (4.39) |
| GFTFDCYAMH | GISWNMGSIGYADSVK | VGRYGGYFDY | n.d. n.d. 3.35 | 3.35 | 0/9 |

Reference: Engelhart et al. 2022, doi:10.1038/s41597-022-01779-4. File: FLAb, binding data.